Experimental data from patent US20220273770A1, “GLUCOSE-[…] CONJUGATES” (Merck Sharp & Dohme Corp., priority 2019, published 2022).

Amino acid sequences for entries named in this document (tags omitted). Residues count along the entry.
UniProt P06213, 28-758 limits assumed: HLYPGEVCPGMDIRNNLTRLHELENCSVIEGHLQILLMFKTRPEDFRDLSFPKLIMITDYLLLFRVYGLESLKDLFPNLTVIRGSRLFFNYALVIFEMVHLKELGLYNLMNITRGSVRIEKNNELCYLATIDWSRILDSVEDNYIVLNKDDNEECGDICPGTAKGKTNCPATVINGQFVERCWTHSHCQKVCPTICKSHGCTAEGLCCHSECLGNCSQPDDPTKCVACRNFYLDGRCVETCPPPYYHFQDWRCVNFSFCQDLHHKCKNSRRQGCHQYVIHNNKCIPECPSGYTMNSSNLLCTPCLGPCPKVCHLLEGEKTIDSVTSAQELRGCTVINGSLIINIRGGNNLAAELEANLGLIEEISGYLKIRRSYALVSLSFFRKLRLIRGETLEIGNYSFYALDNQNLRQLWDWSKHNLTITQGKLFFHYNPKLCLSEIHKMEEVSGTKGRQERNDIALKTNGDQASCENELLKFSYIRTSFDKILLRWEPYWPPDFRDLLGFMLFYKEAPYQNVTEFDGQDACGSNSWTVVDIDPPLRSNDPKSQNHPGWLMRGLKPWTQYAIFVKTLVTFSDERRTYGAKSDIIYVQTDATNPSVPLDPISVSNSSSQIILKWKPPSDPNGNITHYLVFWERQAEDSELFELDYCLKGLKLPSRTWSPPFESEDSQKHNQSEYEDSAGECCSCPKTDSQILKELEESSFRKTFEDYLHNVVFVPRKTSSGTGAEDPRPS
UniProt P06213, 763-1382 limits assumed: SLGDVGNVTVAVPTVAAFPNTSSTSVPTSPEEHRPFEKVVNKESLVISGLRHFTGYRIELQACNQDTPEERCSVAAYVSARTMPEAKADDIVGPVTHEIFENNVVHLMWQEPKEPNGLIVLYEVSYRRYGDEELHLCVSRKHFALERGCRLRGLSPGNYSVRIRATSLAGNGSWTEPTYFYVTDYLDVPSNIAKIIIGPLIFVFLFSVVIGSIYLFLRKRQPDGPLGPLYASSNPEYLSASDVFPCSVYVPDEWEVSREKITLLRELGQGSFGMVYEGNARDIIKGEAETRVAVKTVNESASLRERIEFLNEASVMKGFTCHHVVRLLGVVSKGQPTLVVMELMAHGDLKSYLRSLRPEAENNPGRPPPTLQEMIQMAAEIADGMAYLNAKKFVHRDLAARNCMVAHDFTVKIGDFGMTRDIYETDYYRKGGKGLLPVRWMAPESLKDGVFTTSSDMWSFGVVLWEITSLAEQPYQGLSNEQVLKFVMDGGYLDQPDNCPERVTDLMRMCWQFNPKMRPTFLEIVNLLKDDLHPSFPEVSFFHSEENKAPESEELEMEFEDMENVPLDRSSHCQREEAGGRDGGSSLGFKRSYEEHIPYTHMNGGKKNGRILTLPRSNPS

What was measured:
human IR(B) = target: T1, human IR(B) (Homo sapiens, UniProt P06213); test: Insulin receptor phosphorylation assay (MSD pIR; Method A 96-well, Method B 384-well); type: cell-based; conditions: read-out: IR Activation IP†; Method C as printed in the table
T1 construct: expressed in transfected cells; host or cells: CHO cells
Procedure: CHO cells stably expressing human IR(B) were in grown in F12 cell media containing 10% FBS and antibiotics (G418, Penicillin/Strepavidin) for at least 8 h, and then serum starved by switching to F12 media containing 0.5% BSA (insulin-free) in place of FBS for overnight growth. Cells were harvested and frozen in aliquots for use in the MSD pIR assay. Briefly, the frozen cells were plated in either 96-well (40,000 cells/well, Methods A) or 384-well (10,000 cells/well, Method B) clear tissue culture plates and allowed to recover. IOC molecules at the appropriate concentrations were added and the cells incubated for 8 min at 37° C. The media was aspirated and chilled MSD cell lysis buffer was added as per MSD kit instructions. The cells were lysed on ice for 40 min, and the lysate then was mixed for 10 min at rt. […]
(§1) The in vitro biological activities towards insulin receptor (IR) were measured by either ligand competition assays or functional phosphorylation assays, as described above, labeled as following: Method A: IR phosphorylation assay based on 96-well; Method B: IR phosphorylation assay based on 384-well with automated liquid dispense; Method C: cell-based IR binding assay; Method D: SPA IR binding assay method E; Method E: MRC1 assay was performed in a 96-well plate; Method F: MRC1 assay was performed in a 384-well plate.

[1] = target: T2, Human macrophage mannose receptor 1 (MRC1) (Homo sapiens, UniProt P22897); test: Human macrophage mannose receptor 1 competition binding assay (Method E 96-well, Method F 384-well); conditions: read-out: MRC1 Binding IP‡; Method H as printed in the table
T2 sequence (P22897 19-1456): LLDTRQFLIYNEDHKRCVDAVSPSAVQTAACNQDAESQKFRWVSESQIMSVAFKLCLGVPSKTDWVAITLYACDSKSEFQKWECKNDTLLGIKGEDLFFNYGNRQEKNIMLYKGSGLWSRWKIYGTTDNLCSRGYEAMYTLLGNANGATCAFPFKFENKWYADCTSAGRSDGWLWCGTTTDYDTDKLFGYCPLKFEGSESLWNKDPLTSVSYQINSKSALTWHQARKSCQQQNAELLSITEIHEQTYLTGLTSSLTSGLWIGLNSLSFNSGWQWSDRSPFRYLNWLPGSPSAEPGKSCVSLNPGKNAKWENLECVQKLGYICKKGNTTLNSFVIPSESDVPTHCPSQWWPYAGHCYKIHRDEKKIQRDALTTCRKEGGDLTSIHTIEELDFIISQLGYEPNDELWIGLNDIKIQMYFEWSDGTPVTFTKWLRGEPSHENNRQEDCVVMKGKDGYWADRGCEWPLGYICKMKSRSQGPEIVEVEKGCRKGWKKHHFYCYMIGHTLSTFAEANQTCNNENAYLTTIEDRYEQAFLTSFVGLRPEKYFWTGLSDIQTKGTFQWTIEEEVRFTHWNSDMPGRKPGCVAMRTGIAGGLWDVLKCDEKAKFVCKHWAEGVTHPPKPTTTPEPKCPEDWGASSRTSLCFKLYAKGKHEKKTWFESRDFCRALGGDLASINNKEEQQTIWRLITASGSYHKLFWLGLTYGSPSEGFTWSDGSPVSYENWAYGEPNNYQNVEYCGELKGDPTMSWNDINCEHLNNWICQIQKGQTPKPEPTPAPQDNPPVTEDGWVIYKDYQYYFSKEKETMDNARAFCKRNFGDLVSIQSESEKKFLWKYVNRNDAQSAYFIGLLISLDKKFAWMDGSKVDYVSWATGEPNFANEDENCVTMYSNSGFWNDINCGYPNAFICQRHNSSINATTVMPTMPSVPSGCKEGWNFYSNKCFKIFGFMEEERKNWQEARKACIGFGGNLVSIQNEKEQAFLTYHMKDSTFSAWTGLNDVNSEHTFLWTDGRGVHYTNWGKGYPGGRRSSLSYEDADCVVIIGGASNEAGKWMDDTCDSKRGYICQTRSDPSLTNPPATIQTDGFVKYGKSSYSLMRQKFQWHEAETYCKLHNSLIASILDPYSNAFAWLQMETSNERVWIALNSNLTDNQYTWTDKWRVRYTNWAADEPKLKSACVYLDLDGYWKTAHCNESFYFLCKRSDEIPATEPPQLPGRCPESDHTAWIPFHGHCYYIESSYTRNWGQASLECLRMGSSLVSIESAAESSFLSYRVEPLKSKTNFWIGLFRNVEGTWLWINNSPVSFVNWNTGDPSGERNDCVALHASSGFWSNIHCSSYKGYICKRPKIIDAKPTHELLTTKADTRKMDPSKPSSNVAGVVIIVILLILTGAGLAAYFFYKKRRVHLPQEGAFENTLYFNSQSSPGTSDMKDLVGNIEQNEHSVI
Procedure: The competition binding assay for Human macrophage mannose receptor 1 (MRC1) utilized a ligand, mannosylated-BSA labeled with the DELFIA Eu-N1-ITC reagent, as reported in the literature. Assay was performed either in a 96-well plate with 100 μL well volume (Method E) or in a 384-well plate with 25 μL well volume (Method F). […] The antibody was incubated in the plate for 1 h at rt with shaking. The plate was washed with wash buffer 3 to 5 times followed by addition of MRC1 (2 ng/μl final concentration) in PBS containing 1% stabilizer BSA. The plate was incubated at rt with gentle shaking for 1 h. The plate was washed three times with wash buffer. […]
as §1

CC[C@H](C)[C@H](NC(=O)CNC(=O)CCCCC(=O)NCCO[C@H]1O[C@H](CO[C@H]2O[C@H](CO)[C@@H](O)[C@H](O)[C@@H]2O)[C@@H](O)[C@H](O[C@H]2O[C@H](CO)[C@@H](O)[C@H](O)[C@@H]2O)[C@@H]1O)C(=O)N[C@H](C(=O)N[C@@H](CCC(=O)O)C(=O)N[C@@H](CCC(N)=O)C(=O)N[C@H]1CSSC[C@@H]2NC(=O)[C@H]([C@@H](C)CC)NC(=O)[C@H](CO)NC(=O)[C@H]([C@@H](C)O)NC(=O)[C@H](CSSC[C@H](NC(=O)[C@H](CC(C)C)NC(=O)[C@H](Cc3c[nH]cn3)NC(=O)[C@H](CCC(N)=O)NC(=O)[C@H](CC(N)=O)NC(=O)[C@@H](NC(=O)[C@H](Cc3ccccc3)NC(=O)CCCCC(=O)NCCO[C@H]3O[C@H](CO[C@H]4O[C@H](CO)[C@@H](O)[C@H](O)[C@@H]4O)[C@@H](O)[C@H](O[C@H]4O[C@H](CO)[C@@H](O)[C@H](O)[C@@H]4O)[C@@H]3O)C(C)C)C(=O)NCC(=O)N[C@@H](CO)C(=O)N[C@@H](Cc3c[nH]cn3)C(=O)N[C@@H](CC(C)C)C(=O)N[C@@H](C(C)C)C(=O)N[C@@H](CCC(=O)O)C(=O)N[C@@H](C)C(=O)N[C@@H](CC(C)C)C(=O)N[C@@H](Cc3ccc(O)cc3)C(=O)N[C@@H](CC(C)C)C(=O)N[C@@H](C(C)C)C(=O)N[C@H](C(=O)NCC(=O)N[C@@H](CCC(=O)O)C(=O)N[C@@H](CCCNC(=N)N)C(=O)NCC(=O)N[C@@H](Cc3ccccc3)C(=O)N[C@@H](Cc3ccccc3)C(=O)N[C@@H](Cc3ccc(O)cc3)C(=O)N[C@H](C(=O)N3CCC[C@H]3C(=O)N[C@@H](CCCNC(=N)N)C(=O)O)[C@@H](C)O)CSSC[C@@H](C(=O)N[C@@H](CC(N)=O)C(=O)O)NC(=O)[C@H](Cc3ccc(O)cc3)NC(=O)[C@H](CCCCN)NC(=O)[C@H](CCC(=O)O)NC(=O)[C@H](CC(C)C)NC(=O)[C@H](CCC(N)=O)NC(=O)[C@H](Cc3ccc(O)cc3)NC(=O)[C@H](CC(C)C)NC(=O)[C@H](CO)NC2=O)NC1=O)C(C)C [IOC-116]
EC50 (human IR(B)): 1.79 nM | IC50 [1]: 20.2 nM

CC[C@H](C)[C@H](NC(=O)CN)C(=O)N[C@H](C(=O)N[C@@H](CCC(=O)O)C(=O)N[C@@H](CCC(N)=O)C(=O)N[C@H]1CSSC[C@@H]2NC(=O)[C@H]([C@@H](C)CC)NC(=O)[C@H](CCCCNC(=O)CCCCC(=O)NCCO[C@H]3O[C@H](CO[C@H]4O[C@H](CO)[C@@H](O)[C@H](O)[C@@H]4O)[C@@H](O)[C@H](O[C@H]4O[C@H](CO)[C@@H](O)[C@H](O)[C@@H]4O)[C@@H]3O)NC(=O)[C@H]([C@@H](C)O)NC(=O)[C@H](CSSC[C@H](NC(=O)[C@H](CC(C)C)NC(=O)[C@H](Cc3c[nH]cn3)NC(=O)[C@H](CCC(N)=O)NC(=O)[C@H](CC(N)=O)NC(=O)[C@@H](NC(=O)[C@@H](N)Cc3ccccc3)C(C)C)C(=O)NCC(=O)N[C@@H](CO)C(=O)N[C@@H](Cc3c[nH]cn3)C(=O)N[C@@H](CC(C)C)C(=O)N[C@@H](C(C)C)C(=O)N[C@@H](CCC(=O)O)C(=O)N[C@@H](C)C(=O)N[C@@H](CC(C)C)C(=O)N[C@@H](Cc3ccc(O)cc3)C(=O)N[C@@H](CC(C)C)C(=O)N[C@@H](C(C)C)C(=O)N[C@H](C(=O)NCC(=O)N[C@@H](CCC(=O)O)C(=O)N[C@@H](CCCNC(=N)N)C(=O)NCC(=O)N[C@@H](Cc3ccccc3)C(=O)N[C@@H](Cc3ccccc3)C(=O)N[C@@H](Cc3ccc(O)cc3)C(=O)N[C@H](C(=O)N3CCC[C@H]3C(=O)N[C@@H](CCCCNC(=O)CCCCC(=O)NCCO[C@H]3O[C@H](CO[C@H]4O[C@H](CO)[C@@H](O)[C@H](O)[C@@H]4O)[C@@H](O)[C@H](O[C@H]4O[C@H](CO)[C@@H](O)[C@H](O)[C@@H]4O)[C@@H]3O)C(=O)O)[C@@H](C)O)CSSC[C@@H](C(=O)N[C@@H](CC(N)=O)C(=O)O)NC(=O)[C@H](Cc3ccc(O)cc3)NC(=O)[C@H](CC(N)=O)NC(=O)[C@H](CCC(=O)O)NC(=O)[C@H](CC(C)C)NC(=O)[C@H](CCC(N)=O)NC(=O)[C@H](Cc3ccc(O)cc3)NC(=O)[C@H](CC(C)C)NC(=O)[C@H](CO)NC2=O)NC1=O)C(C)C [IOC-118]
EC50 (human IR(B)): 0.866 nM | IC50 [1]: 24.1 nM
